The subject of test [1] is bladder cancer cell line (RT112/84). The test is described as follows: Tumor cell proliferation inhibition (CTG, 72 h). Type of test: cell-based. The following applies: Homo sapiens, RT112/84, read-out: RT112/84 range of activity (IC50).
Test [2] concerns thyroid cancer cell line (TT). Nature of the test: Tumor cell proliferation inhibition (CTG, 72 h). The following applies: Homo sapiens, read-out: TT range of activity (IC50). Type of test: cell-based.

pIC50: −log10 of the molar value.

With `CNC(=O)c1cc(Oc2ccc(NC(=O)Nc3ccc(Cl)c(C(F)(F)F)c3)cc2)ccn1` [Sorafenib, reference compound], the pIC50 in test [1] is less than 6.00; in test [2], less than 5.00.

(Values after patent US12071408B2 (dated 2024).)
